Measured affinities in a library of Ab-14 heavy chain variants

Data: MIT Lincoln Laboratory AlphaSeq set, Engelhart et al. 2022, doi:10.1038/s41597-022-01779-4, as distributed in FLAb.

Target peptide (SARS-CoV-2 spike, HR2 region): PDVDLGDISGINAS

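AAYL49 was designed without a model: most single CDR substitutions and a random sample of double and triple ones. Affinity was read by AlphaSeq, a pooled yeast mating assay with surface-displayed partners. After mating in shaken culture at 30 °C for 16 h, diploids were selected and their barcode pairs sequenced. The ratio of observed to expected reads was calibrated, replicate by replicate, on BCL2-family standards whose Kd was known from biolayer interferometry. Mating was done three times.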

Parent: Ab-14, a human scFv built as VH, three GGGGS repeats, VL. Only the CDRs of the heavy chain vary.
VH: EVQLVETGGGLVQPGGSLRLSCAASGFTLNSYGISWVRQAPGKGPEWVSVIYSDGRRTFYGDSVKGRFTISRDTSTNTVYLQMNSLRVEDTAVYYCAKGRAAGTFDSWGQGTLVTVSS
VL: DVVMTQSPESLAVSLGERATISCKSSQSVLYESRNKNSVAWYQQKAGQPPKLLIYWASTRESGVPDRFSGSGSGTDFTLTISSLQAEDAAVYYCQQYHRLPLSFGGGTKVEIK

Substitutions are numbered in sequence along the VH above, starting at 1 (not Kabat). This list gathers variants with a substitution at T28 (VH, numbered from residue 1). Kd is apparent (estimated from mating counts) and averaged on the log scale over replicates with a signal. Smaller is tighter. "no signal" marks a missing value. The strain was present, yet no cells mated with the target were sequenced in any replicate, which points to weak or no binding.

- T28E+S63L+D106E: 38 µM (1 of 3 replicates; controls 0 of 9)
- T28L+S53E: no signal (0 of 3 replicates; controls 3 of 9)
- T28P+D62S+G99W: 11 µM (1 of 3 replicates; controls 0 of 9)
- T28Y+V50E+S107H: 3.1 µM (1 of 3 replicates; controls 2 of 9)
- T28G+R56I+T58S: no signal (0 of 3 replicates; controls 0 of 9)
- T28I: 17 nM (3 of 3 replicates; controls 2 of 9)
- T28I+V50Q+D106Y: no signal (0 of 3 replicates; controls 3 of 9)
- T28P+R56E: 8.4 nM (3 of 3 replicates; controls 3 of 9)
- T28K+G61E+A101N: 2.2 nM (3 of 3 replicates; controls 4 of 9)
- T28W+D54N+T58V: no signal (0 of 3 replicates; controls 0 of 9)
- T28G+T104P+S107F: 10 µM (1 of 3 replicates; controls 5 of 9)
- T28N+I34S+D54M: no signal (0 of 3 replicates; controls 1 of 9)
- T28E+A101R: 14 nM (3 of 3 replicates; controls 0 of 9)
- T28S+A101T+S107Y: 1.5 nM (3 of 3 replicates; controls 4 of 9)
- T28Q+S31M+Y60L: 350 nM (3 of 3 replicates; controls 1 of 9)
- T28D+I51M+T104V: 53 nM (3 of 3 replicates; controls 2 of 9)
- T28I+T58V+A101H: no signal (0 of 3 replicates; controls 0 of 9)
- T28W+F59P+T104E: no signal (0 of 3 replicates; controls 0 of 9)
- T28W+L29R+F105S: no signal (0 of 3 replicates; controls 3 of 9)
- T28L: 6.0 nM (3 of 3 replicates; controls 1 of 9)
- T28P+K65G: 3.8 µM (1 of 3 replicates; controls 1 of 9)
- T28Q+N30Q+V50D: no signal (0 of 3 replicates; controls 1 of 9)
- T28A+S63Y+T104P: 1.6 µM (3 of 3 replicates; controls 1 of 9)
- T28E: 2.0 nM (3 of 3 replicates; controls 4 of 9)
- T28Q: 5.6 nM (3 of 3 replicates; controls 5 of 9)
- T28S+L29P+T58D: no signal (0 of 3 replicates; controls 1 of 9)
- T28A+Y32H+D54A: no signal (0 of 3 replicates; controls 1 of 9)
- T28Y+S53D+S63Y: no signal (0 of 3 replicates; controls 6 of 9)
- T28E+T58P+G61E: no signal (0 of 3 replicates; controls 2 of 9)
- T28V+G103L: 3.0 nM (3 of 3 replicates; controls 0 of 9)
- T28C+I51A+D54A: 19 µM (1 of 3 replicates; controls 2 of 9)
- T28A+I34N+Y52D: no signal (0 of 3 replicates; controls 4 of 9)
- T28C+I51M+D54G: no signal (0 of 3 replicates; controls 0 of 9)
- G26V+T28K+D106S: 72 µM (1 of 3 replicates; controls 0 of 9)
- T28Y+N30M+T58F: no signal (0 of 3 replicates; controls 0 of 9)
- T28A+I51N+G103I: no signal (0 of 3 replicates; controls 1 of 9)
- G26F+T28L+S107T: 71 µM (1 of 3 replicates; controls 1 of 9)
- T28V+I34W+F59H: 4.8 µM (3 of 3 replicates; controls 1 of 9)
- T28I+S35L: no signal (0 of 3 replicates; controls 2 of 9)
- T28V+I51R+S63D: 120 µM (1 of 3 replicates; controls 1 of 9)
- T28M+S53L: no signal (0 of 3 replicates; controls 0 of 9)
- T28Y+G33H+D106W: 17 µM (2 of 3 replicates; controls 4 of 9)
- T28D+S63W+K65L: 960 nM (2 of 3 replicates; controls 0 of 9)
- G26E+T28W+S53N: no signal (0 of 3 replicates; controls 1 of 9)
- T28I+L29Y+D54Q: no signal (0 of 3 replicates; controls 1 of 9)
- F27L+T28Y+D54S: no signal (0 of 3 replicates; controls 0 of 9)
- T28I+G33S+R100F: no signal (0 of 3 replicates; controls 1 of 9)
- G26H+T28H+G61W: no signal (0 of 3 replicates; controls 2 of 9)
- T28K+S35I+S107V: 1.4 µM (1 of 3 replicates; controls 3 of 9)
- T28A+L29H: 29 µM (2 of 3 replicates; controls 0 of 9)
- T28Y+S63G+S107M: 300 nM (2 of 3 replicates; controls 1 of 9)

Excerpt, the final 5 entries:

{"changes": "T28I+G33S+R100F", "apparent Kd": "no signal", "detected": "0 of 3", "signal with controls": "1 of 9"}
{"changes": "G26H+T28H+G61W", "apparent Kd": "no signal", "detected": "0 of 3", "signal with controls": "2 of 9"}
{"changes": "T28K+S35I+S107V", "apparent Kd": "1.4 µM", "detected": "1 of 3", "signal with controls": "3 of 9"}
{"changes": "T28A+L29H", "apparent Kd": "29 µM", "detected": "2 of 3", "signal with controls": "0 of 9"}
{"changes": "T28Y+S63G+S107M", "apparent Kd": "300 nM", "detected": "2 of 3", "signal with controls": "1 of 9"}

Three control strains display no target. For library AAYL49, 15% of the pairings with them gave a signal, with a median of 11 µM and one signal in twenty below 680 nM, so weak values seen in few replicates may be background. The control count says in how many pairings with the empty strains this scFv gave a signal. Parent in this assay: reference entry 4.4 nM, copy in this library 13 µM (one replicate of three).